Experimental findings from patent US20250367283A1, “MEVALONATE PATHWAY INHIBITOR AS HIGHLY-EFFICIENT VACCINE ADJUVANT” (Tsinghua University, priority 2015, published 2025) are described below.

By UniProt entry, the sequences of proteins in these tests, tags left out.
UniProt P14324, whole entry: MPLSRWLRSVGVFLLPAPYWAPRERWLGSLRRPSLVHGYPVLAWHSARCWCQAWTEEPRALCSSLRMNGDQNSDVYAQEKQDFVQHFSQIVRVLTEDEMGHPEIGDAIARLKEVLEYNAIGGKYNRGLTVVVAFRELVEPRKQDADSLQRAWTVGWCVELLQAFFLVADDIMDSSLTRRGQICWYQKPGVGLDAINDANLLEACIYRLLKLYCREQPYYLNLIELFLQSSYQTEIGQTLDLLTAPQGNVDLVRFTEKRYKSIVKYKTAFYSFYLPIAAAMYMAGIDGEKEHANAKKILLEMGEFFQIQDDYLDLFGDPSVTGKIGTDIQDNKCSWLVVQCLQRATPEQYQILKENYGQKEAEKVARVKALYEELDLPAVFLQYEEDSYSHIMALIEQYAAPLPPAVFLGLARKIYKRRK

pIC50: −log10 of the molar value.

In this assay the target is humanized farnesyl pyrophosphate synthase (HsFPPS) (Homo sapiens (Human), UniProt P14324). As to the kind of experiment: In vitro HsFPPS enzyme activity assay. As to conditions: read-out: IC50 for inhibition of FPPS; TH-Z97 series.
With `CCCCOc1ccn2c(CC(O)(P(=O)(O)O)P(=O)(O)O)cnc2c1`, the pIC50 (usually −log10 of the IC50, conventionally taken in molar units) was 7.22.

`CCCOc1ccn2c(CC(O)(P(=O)(O)O)P(=O)(O)O)cnc2c1`: the pIC50 was 6.89.

`CCCCCCCCCOc1ccn2c(CC(O)(P(=O)(O)O)P(=O)(O)O)cnc2c1`: the pIC50 is 5.30.

As to `CCOc1ccn2c(CC(O)(P(=O)(O)O)P(=O)(O)O)cnc2c1`, the pIC50 is 7.10.

Regarding `CCCCCCCCCCOc1ccn2c(CC(O)(P(=O)(O)O)P(=O)(O)O)cnc2c1`, the pIC50 is < 5.30.

On to `COc1ccn2c(CC(O)(P(=O)(O)O)P(=O)(O)O)cnc2c1`, for which the pIC50 was 6.80.

Take `CCCCCCCCOc1ccn2c(CC(O)(P(=O)(O)O)P(=O)(O)O)cnc2c1`: the negative logarithm of the IC50 (pIC50) was 6.82.

Turning to `CCCCCCCOc1ccn2c(CC(O)(P(=O)(O)O)P(=O)(O)O)cnc2c1`, the pIC50 was 6.77.

For `CCCCCCCCCCCOc1ccn2c(CC(O)(P(=O)(O)O)P(=O)(O)O)cnc2c1`, the pIC50 was < 5.30.

For `CCCCCCCCCCCCOc1ccn2c(CC(O)(P(=O)(O)O)P(=O)(O)O)cnc2c1`, the pIC50 was < 5.30.

For `CCCCCOc1ccn2c(CC(O)(P(=O)(O)O)P(=O)(O)O)cnc2c1`, the pIC50 is 7.15.
